Laboratory results taken from patent US20060251751A1, “Sophoridine and its use as an analgesic” (SHANGHAI FANGDA PHARMACEUTICALS, LTD., priority 2001, published 2006).

Tested on: mice
Experiment: Effect of the opioid receptor antagonist naloxone on morphine- and sophoridine-induced analgesia
[1] = morphine hydrochloride alone 10 mg/kg i.v.

Row | SMILES | Pain thresholds after admin. (seconds) 30 min. (morphine hydrochloride alone 10 mg/kg i.v., 30 min.) [s] | Pain thresholds after admin. (seconds) 60 min. [1] [s] | Pain thresholds after admin. (seconds) 90 min. [1] [s] | Pain thresholds before admin. (morphine hydrochloride alone 10 mg/kg i.v., before admin. (baseline)) [s] | naloxone counteracting the analgesic effect (in words) (naloxone 2.0 mg/kg, morphine 10 mg/kg or sophoridine 20 mg/kg) | Pain thresholds after admin. (seconds) 15 min. (naloxone alone 2 mg/kg i.v., 15 min.) [s] | Pain thresholds after admin. (seconds) 60 min. (naloxone alone 2 mg/kg i.v.) [s] | Pain thresholds after admin. (seconds) 90 min. (naloxone alone 2 mg/kg i.v.) [s]
1 | CN1CC[C@]23c4c5ccc(O)c4O[C@H]2[C@@H](O)C=C[C@H]3[C@H]1C5.Cl [Morphine, morphine hydrochloride] | 43.5 ± 12.5 | 31.6 ± 15.8 | 26.3 ± 15.5 | 19.8 ± 4.0 | effective in counteracting the analgesic effect | – | – | –
2 | C=CCN1CC[C@]23c4c5ccc(O)c4O[C@H]2C(=O)CC[C@@]3(O)[C@H]1C5 [Naloxone, naloxone] | – | – | – | – | – | 17.4 ± 7.7 | 19.0 ± 8.7 | 18.1 ± 4.0
